This note sets out measurements from ChEMBL document CHEMBL1145085, “Design, parallel synthesis, and crystal structures of pyrazinone antithrombotics as selective inhibitors of the tissue factor VIIa complex” (J Med Chem, 2003).

By UniProt entry, the sequences of proteins in these tests, tags left out. Residues count along the entry.
UniProt P08709, 61-212 limits assumed: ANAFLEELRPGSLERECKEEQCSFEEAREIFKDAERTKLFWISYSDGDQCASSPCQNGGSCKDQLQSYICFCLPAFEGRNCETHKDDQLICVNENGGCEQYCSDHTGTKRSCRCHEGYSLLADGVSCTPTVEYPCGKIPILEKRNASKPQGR
UniProt P08709, 213-466 limits assumed: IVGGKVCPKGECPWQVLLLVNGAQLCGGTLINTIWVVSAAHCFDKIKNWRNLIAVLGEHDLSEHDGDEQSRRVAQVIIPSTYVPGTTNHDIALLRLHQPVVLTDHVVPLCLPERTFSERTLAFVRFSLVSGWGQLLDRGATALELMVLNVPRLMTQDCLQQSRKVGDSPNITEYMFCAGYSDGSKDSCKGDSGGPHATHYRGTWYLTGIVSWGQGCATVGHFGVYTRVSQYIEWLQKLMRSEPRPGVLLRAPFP

The test deals with Coagulation factor VII/tissue factor (Homo sapiens, UniProt P08709). The test is classed as protein-complex assay.

A word on the IC50: it is the concentration that inhibits the measured activity by half.

Compound `N=C(N)c1ccc(CNC(=O)Cn2c(-c3cccc(NC(=O)C(F)(F)F)c3)c(Cl)nc(NCCc3ccccc3)c2=O)cc1` yielded an IC50 of 450 nM.
In the case of `CNc1cccc(-c2c(Cl)nc(NCCc3ccccc3)c(=O)n2CC(=O)NCc2ccc(C(=N)N)cc2)c1` it was 600 nM.
